Earlier results, collected in PMC3203879 (PLoS ONE, 2011).

Biological target: thrombin
Conditions: cited from earlier work

In the case of CC1CNc2c(cccc2S(=O)(=O)N[C@@H](CCCNC(=N)N)C(=O)N2CC[C@@H](C)C[C@@H]2C(=O)O)C1 (stereo partly shown) [argatroban], the Ki is given as 3.2 nM.
